{
  "source": "paper PMC7870626",
  "about": "“Neurotoxicity and underlying cellular changes of 21 mitochondrial respiratory chain inhibitors” (Archives of Toxicology, 2021)",
  "key": {"LUHMES cells": {"system": "LUHMES cells", "assay_type": "cell-based, human", "protocol": "Cells were cultured and treated as described above for the NeuriTox assay. On d3, after 24 h treatment, culture medium was replaced by 33 µl/well 1 × Biospyder lysis buffer. After 15 min at room temperature, plates were sealed and frozen at -80 °C to complete lysis. Samples were analyzed at Bioclavis (Glasgow) using the TempO-Seq technique and the EU-ToxRisk v2.0 gene probe panel covering ca. 3000 genes (Yeakley et al. [2017]). All genes are listed in the supplementary excel file (containing also all gene regulations). Briefly, a 50 bp fragment of the target gene was amplified. The amplification step also introduced sample-specific barcodes. This allowed pooling of all samples and standard next-generation sequencing of the ensemble. Afterward, adapters were used to allocate the sequenced fragments to the correct samples. Finally, the alignment of all sequenced fragments (FASTQ files) for each sample to the collection of reference 50 bp oligonucleotides was performed for the quantification of reads per gene, also known as the read count values. In a pre-filtering step, samples with a total count < 0.2 million and genes with an average count < 1.5 were removed. The effect of normalization was checked by boxplots and distribution plots (not shown), and no outlier samples were identified.\nTo correct for both read depth and RNA composition, the DESeq2′s median of ratios normalization was applied. The analysis of differentially expressed genes (DEG) of each treatment against the control group was done by the Wald test implemented in DESeq2/R (Love et al. [2014]), including an FDR correction for p-adjusted ≤ 0.05. […] A curve was fit through these concentration–response data to obtain EC10DEG. For comparability, all DEG data were normalized to a positive control. […] The EC10DEG was calculated using an established online open access BMC calculator (BMCeasy) (Krebs et al. [2020])."}, "HepG2 cells": {"system": "HepG2 cells", "assay": "HepG2-based respirometry, total cell respiration (earlier study)", "settings": "NeuriTox neurite EC25 relative to cell respiration EC25; respirometric data from HepG2-based assays ref van der Stel et al. 2020"}, "SH-SY5Y cells": {"system": "SH-SY5Y cells", "assay": "Mitochondrial membrane potential (rhodamine 123), KE2 assay", "assay_type": "cell-based, human", "settings": "NeuriTox neurite EC25 relative to SH-SY5Y MMP EC25", "protocol": "Cells were plated at a cell density of 29,500 cells/cm^2 and handled as described above for the neurite SH-SY5Y degeneration. On d6 of differentiation, 50% of the medium was replaced by differentiation medium containing 2 µM Rhodamine 123 (ThermoFisher). After 45 min of preloading at 37 °C with 5% CO2 in darkness, the Rhodamine 123 solution was completely removed and cells were carefully washed once with 200 µl DMEM:F12. Subsequently, 50 µl differentiation medium per well were added followed by the addition of 50 µl/well of test compounds in medium. […] Nuclei were evaluated in the DAPI channel (excitation 377 ± 50 nm, emission 447 ± 60 nm), whereas Rhodamine 123 fluorescence was detected in the FITC channel (excitation 475 ± 34 nm, emission 536 ± 40 nm). Analysis of the Hoechst 33,342 and Rhodamine 123 fluorescence was performed using the MetaXpress® Software (Molecular Devices) with the Transfluor HT plug-in and the parameters nuclei (for Hoechst-33342) and integrated granule intensity (for Rhodamine 123). Mitochondrial membrane potential (MMP) was quantified as the total fluorescence intensity of Rhodamine 123 in relation to the number of Hoechst-stained nuclei."}, "proteasome": {"system": "proteasome", "assay": "Proteasomal activity (KE3 assay) in LUHMES cells", "assay_type": "cell-based, human", "settings": "NeuriTox neurite EC25 relative to proteasomal activity EC25, LUHMES", "protocol": "Activity of the proteasome was quantified as described in (Gutbier et al. [2018b]). Briefly, after exposure, culture medium was replaced by assay buffer containing a cell-permeable proteasomal substrate (MeOSuc-Gly-Leu-Phe-AMC, 25 µM (Bachem, Bubendorf, Switzerland) in HBSS). Its AMC-fluorescence (ex: 360 nm, em: 465 nm) increases with proteasomal activity and was monitored for 90 min. Background-corrected data were used for further analysis."}, "[1]": {"system": "MRC complex (cI, cII or cIII)", "assay": "HepG2-based MRC complex assay in permeabilized cells (earlier study)", "assay_type": "cell-based", "settings": "NeuriTox neurite EC25 relative to complex assay EC25 in permeabilized cells; respirometric data from HepG2-based assays ref van der Stel et al. 2020"}},
  "data": [
    {"smiles": "Cc1nn(C)c(Oc2ccccc2)c1C=NOCc1ccc(C(=O)OC(C)(C)C)cc1", "note": "[Fenpyroximate]", "values": [
      {"measurement": "log2FoldChange AARS", "setting": "LUHMES cells", "result": 0.27, "unit": "log2"},
      {"measurement": "log2FoldChange AASDHPPT", "setting": "LUHMES cells", "result": 0.38, "unit": "log2"},
      {"measurement": "log2FoldChange AATF", "setting": "LUHMES cells", "result": 0.12, "unit": "log2"},
      {"measurement": "log2FoldChange ABCA1", "setting": "LUHMES cells", "result": -1.83, "unit": "log2"},
      {"measurement": "log2FoldChange ABCA6", "setting": "LUHMES cells", "result": -1.18, "unit": "log2"},
      {"measurement": "Ratios of EC25 KE4/KE1 total respiration", "setting": "HepG2 cells", "result": 100},
      {"measurement": "Ratios of EC25 KE4/KE2 MMP", "setting": "SH-SY5Y cells", "result": 20},
      {"measurement": "Ratios of EC25 KE4/KE3 proteasomal", "setting": "proteasome", "result": 0.6},
      {"measurement": "Ratios of EC25 KE4/KE1 complex assay", "setting": "[1]", "result": 10000}
    ]}
  ]
}
